# Antibody variant affinities, Ab-14 light chain, assay B

Target: peptide PDVDLGDISGINAS, taken from heptad repeat 2 (HR2) of SARS-CoV-2 spike.

The variants keep the heavy chain, the linker and the frameworks of Ab-14 (scFv order VH, three GGGGS repeats, VL).
VH: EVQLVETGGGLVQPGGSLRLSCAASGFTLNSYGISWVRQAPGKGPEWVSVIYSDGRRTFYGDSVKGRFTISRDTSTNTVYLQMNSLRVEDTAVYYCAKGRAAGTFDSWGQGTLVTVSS
VL: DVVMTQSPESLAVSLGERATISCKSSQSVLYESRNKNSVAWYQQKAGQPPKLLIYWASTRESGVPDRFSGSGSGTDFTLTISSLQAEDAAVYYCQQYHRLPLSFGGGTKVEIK

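Designed CDR sequences, proposed from the first random library and measured here. Several design methods are mixed in this list. The scFvs were displayed on barcoded MATa yeast, the peptide on MATalpha yeast. Mating (16 h, 30 °C) was followed by selection of diploids and sequencing of their barcodes. Scores were corrected for input abundance and mapped to Kd with protein pairs of known affinity run in the same pool. Mating was done six times.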

Each variant is given by its three light chain CDRs, as the data file delimits them; those of the parent are KSSQSVLYESRNKNSVA, WASTRES, QQYHRLPLS. Variants here have more than six changes. Affinities are written as log10 Kd with Kd in nM; a lower number is a better binder. Replicates are averaged; those with no signal do not enter the mean. Where no diploid with the target was found in that replicate, the entry reads "ND": below detection, most likely a poor binder, though not proof of it. Values of this round are not directly comparable with the first-round values of the same sequences.

With IISQSVMGESRNKNSVA / QTSERNY / QQYDRLPLS the result was 0.32, 0.40, 0.36, 0.23, 0.42, 0.28 (mean 0.34).
With IFSQSVLMGNLTKNSVA / QASTRFQ / QQYHRLPLI the result was 1.96, 1.52, 1.44, 1.67, 1.59, 1.81 (mean 1.67).
With HITYGMMVHGRHSSSIA / QAEERAK / QQYDRLPLI the result was 1.04, 0.62, 0.94, 0.53, 1.29, 1.27 (mean 0.95).
With QLMFKEANGMNNAYNVA / EAEYSGT / QQYSQLPLG the result was ND, ND, ND, ND, ND, ND.
With HMSALTMLGMRNRNSVA / QMTTREN / QQYDRLPLA the result was 1.06, 1.13, 0.92, 0.89, 0.94, 1.02 (mean 0.99).
With KLMDNPWVEDHYRKAIA / DINVKAD / QQYHRLPLS the result was 0.74, 0.60, 0.52, 0.77, 0.53, 0.81 (mean 0.66).
With KYSMQELQEQRNKNSVA / NASTRES / QQYHRLPLS the result was 0.08, 0.10, 0.10, -0.03, 0.18, 0.17 (mean 0.10).
With KQSFSGGGGSRNKNSVA / EASTRES / QQYHRLPLS the result was 0.40, 0.56, 0.69, 0.28, 0.69, 0.52 (mean 0.52).
With KLRMSTHIESFNKNNVA / EMTTRES / QSYDRLPLS the result was 1.28, 1.30, 0.92, 1.33, 1.73, 1.87 (mean 1.40).
With KLVQFMNRGTHHTSNIA / DAQNRID / QQYARLPLQ the result was ND, 0.48, ND, 0.19, -0.32, 0.91 (mean 0.32).
With KLSMVTGHLSMAKNNVA / EMATREK / QQYERLPLS the result was ND, ND, ND, ND, 1.80, ND.
With KIMQSLNYEQFNKNSVA / GQETRER / QSYHRLPLS the result was 2.67, 2.04, 2.20, 3.04, ND, ND (mean 2.49).
With KLAMITGLEKVSGNNVA / EMETRER / QQYNRLPLS the result was 0.39, 0.17, 0.35, 0.43, 0.10, 0.39 (mean 0.31).
With KSSQSWLGMDGNKNSVA / QASQRES / QQYHRLPLS the result was 0.30, 0.22, 0.22, 0.16, 0.14, 0.32 (mean 0.23).
With KLREVIHVESKQKNNVA / DNSTREQ / QDYHRLPLS the result was ND, 2.23, 0.97, 0.93, 2.58, 1.81 (mean 1.70).
With KLQSVTGTEKVHGNNVA / EMETRER / QQYNRLPLA the result was 0.47, 0.79, 0.80, 0.57, 0.72, 0.58 (mean 0.65).
With VFQQQWDGHTDTNNSVA / NVDHKME / QQYYRLPLL the result was 0.79, 0.98, 0.93, 0.67, 0.99, 1.09 (mean 0.91).
With KLQQQNLYESRNKNNVA / EATQREQ / QQYHRLPLS the result was 0.00, 1.08, 0.03, 0.08, -0.26, 0.40 (mean 0.22).
With KLSLSLGESKQSERNIA / NMRVSVA / QQYDHLPLT the result was 0.35, 0.47, 0.26, 0.17, 0.18, 0.49 (mean 0.32).
With KMKQSIEGNPKNWNSVA / DVDSTIE / QQYARLPLF the result was 0.44, 0.18, 0.07, 0.06, 0.12, 0.70 (mean 0.26).
With KISSLTMYESVEKNNIA / EMSTRPS / QSYHRLPLS the result was 1.69, 2.41, 3.02, 1.74, ND, ND (mean 2.21).
With HISQMVMYGSCNKYNVA / QVSTREE / QQYHRLPLS the result was 0.81, 0.50, 0.38, 0.76, 0.47, 0.44 (mean 0.56).
With KIGMTLNQLQHQKNNVA / DLVMREK / QQYHRLPLS the result was 1.01, 0.43, 0.54, 0.42, 0.58, 0.52 (mean 0.58).
With HITMGMYVMGRHNSSIA / QAEERAK / QQYDRLPLM the result was 1.31, ND, 1.85, 1.80, 1.47, ND (mean 1.61).
With KLMEQFGHSMDHKNSIA / HVDMLAQ / QQYMHLPLI the result was 0.94, 0.98, 0.94, 0.91, 0.79, 0.61 (mean 0.86).
With HISQMVMYGSCAKNNVA / QVSTREE / QQYHRLPLS the result was 1.38, 1.27, 1.11, 0.93, 1.54, 1.45 (mean 1.28).
With MVYEATMMGGTARNSIA / NAQMRPN / QQYHRLPLI the result was 0.74, 0.05, 0.22, 0.25, 0.73, 0.63 (mean 0.44).
With IVSQLMYWGMHAKNSIA / EAVTRLN / QQYDRLPLF the result was 1.11, 1.16, ND, 0.39, 1.30, 1.90 (mean 1.17).
With HMSMLTLQGMRMRNSVA / QMTTREN / QQYDRLPLS the result was 1.29, 1.05, 1.56, 2.13, 0.90, 1.84 (mean 1.46).
With SLYESMGYLSHNKNSIA / DMSRREN / QQYHRLPLS the result was 0.18, 0.21, -0.18, -0.19, -0.18, -0.02 (mean -0.03).
With TLYGLSNSMSKNKNNVA / EMSTREP / QQYDRLPLQ the result was 0.84, 0.50, 0.75, 0.55, 0.58, 0.65 (mean 0.64).
With IVSQLMLWGWHAKNSIA / EAQTRVN / QQYDRLPLF the result was ND, ND, ND, ND, ND, ND.
With HFSQVTMYGYWNKNSVA / QTSTREE / QQYDKLPLS the result was ND, ND, ND, 2.52, ND, 2.86 (mean 2.69).
With KQQQEWEGQSRNKNSVA / HASKRES / QQYHRLPLS the result was ND, ND, ND, ND, ND, 3.09.
With KLSMITGHMSVSKNNVA / EMVTREK / QQYNRLPLS the result was 0.83, 0.80, 0.56, 0.44, 0.65, 0.46 (mean 0.62).
With KIGGVTNGISKNKNSVA / EQSTRED / QQYNRLPLS the result was 0.83, 0.67, 0.32, 0.74, 0.40, 0.67 (mean 0.60).
With MVNSITDHMSKQTNNVA / ETTTREE / QQYDRLPLS the result was 2.90, 1.63, 2.28, 2.43, 1.96, 1.77 (mean 2.16).
With IVSQLMLWGYHAKNSIA / EAQTRIN / QQYERLPLF the result was ND, ND, ND, ND, ND, ND.
With MFEEYQSEGGANNNAVA / DHECGIR / QQYYRLPLT the result was ND, ND, ND, ND, ND, ND.
With NLQNIGSENSVWKNAIA / DVNIKES / QQYFRLPLL the result was 0.54, 0.73, 0.44, 0.50, 0.60, 0.41 (mean 0.54).
With KMSMSVLYEDRHQNSVA / NASTRLM / QQYHRLPLS the result was 0.18, 0.12, 0.36, 0.14, 0.14, 0.12 (mean 0.18).
With KISMLINMTFEQSNNVA / EMATREK / QQYNRLPLS the result was 0.39, 0.81, -0.26, 1.08, 0.27, 1.38 (mean 0.61).
With KLVQSNLYESRNTNSVA / NASQRLD / QQYHRLPLS the result was 0.38, 0.22, 0.14, -0.03, 0.09, 0.04 (mean 0.14).
With NLSDGEMYHNATRSAVA / NTSMRDF / QQYNRLPLD the result was 1.59, 1.67, 2.36, ND, ND, 1.60 (mean 1.80).
With KVDISPHVQGMHKSGVA / EHDMRVS / QQYDRLPLA the result was 1.69, 1.47, 0.89, 0.87, 1.10, 1.22 (mean 1.21).
With VFSGQWDLNTTENSAVA / NVSERML / QQYNRLPLM the result was 1.41, 1.72, 1.40, 1.67, 1.70, 1.64 (mean 1.59).
With ILSQSVLMGMHIKNSVA / QATMRFN / QQYHRLPLM the result was ND, 1.24, 1.82, ND, 1.16, ND (mean 1.41).
With TLTQVTGMESHNKNSVA / DLSTRGS / QQYHRLPLS the result was 0.51, 0.60, 0.63, 0.62, 0.49, 0.60 (mean 0.57).
With TLSQAMDMTSRNVNSVA / DLTTRGN / QQYHRLPLS the result was 0.78, 0.53, 0.55, 0.31, 0.58, 1.26 (mean 0.67).
With TIDDEEPSRGLKWNSIA / GVATRLQ / QQYHRLPLI the result was 0.79, 1.69, 1.22, 0.59, 0.75, 1.26 (mean 1.05).
With TISQSLYWESRNKNSVA / QTSTREE / QDYDRLPLS the result was 1.31, 1.21, 1.71, 1.78, 2.63, 2.07 (mean 1.78).

Repeated from above, the 5 best binders with a signal in all replicates:

| CDR-L1 | CDR-L2 | CDR-L3 | log10 Kd, replicates | mean log10 Kd (nM) |
|---|---|---|---|---|
| SLYESMGYLSHNKNSIA | DMSRREN | QQYHRLPLS | 0.18, 0.21, -0.18, -0.19, -0.18, -0.02 | -0.03 |
| KYSMQELQEQRNKNSVA | NASTRES | QQYHRLPLS | 0.08, 0.10, 0.10, -0.03, 0.18, 0.17 | 0.10 |
| KLVQSNLYESRNTNSVA | NASQRLD | QQYHRLPLS | 0.38, 0.22, 0.14, -0.03, 0.09, 0.04 | 0.14 |
| KMSMSVLYEDRHQNSVA | NASTRLM | QQYHRLPLS | 0.18, 0.12, 0.36, 0.14, 0.14, 0.12 | 0.18 |
| KLQQQNLYESRNKNNVA | EATQREQ | QQYHRLPLS | 0.00, 1.08, 0.03, 0.08, -0.26, 0.40 | 0.22 |

Of ten entries with the parent sequence, four were seen in most replicates (averages 0.34 to 2.37), three in one and three in none, so single entries are noisy. As a blank, each scFv also met three strains without target: over all light chain designs, 4% of these pairings were detected, typically at 2.64 and seldom below 1.59. The authors averaged sequences with at least three values out of six and counted those with two or fewer as poor binders.

The measurements come from Li et al. 2023 (doi:10.1038/s41467-023-39022-2) through the FLAb antibody collection.